Reference: US9956304 (GEORGIA STATE UNIVERSITY RESEARCH FOUNDATION, dated 2018)

Sequences of proteins named here, by UniProt entry; tags and fusion partners are left off. A change or cut given only in a name is not applied to a line headed by its entry.
UniProt P30550: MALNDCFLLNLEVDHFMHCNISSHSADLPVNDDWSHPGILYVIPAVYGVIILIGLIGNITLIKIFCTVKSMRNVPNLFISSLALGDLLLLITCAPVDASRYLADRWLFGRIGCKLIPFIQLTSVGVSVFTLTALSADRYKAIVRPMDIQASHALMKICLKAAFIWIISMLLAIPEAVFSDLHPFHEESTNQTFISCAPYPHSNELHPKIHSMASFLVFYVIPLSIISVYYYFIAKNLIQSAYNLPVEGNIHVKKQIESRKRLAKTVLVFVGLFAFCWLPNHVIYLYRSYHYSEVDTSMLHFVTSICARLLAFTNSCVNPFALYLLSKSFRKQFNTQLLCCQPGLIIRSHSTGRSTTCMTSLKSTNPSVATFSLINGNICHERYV

Target: T1, gastrin-releasing peptide receptor (GRPR) (UniProt P30550 1-384, limits assumed)
T1 construct: whole, on cells; Endogenous receptor on PC3 and H441 cells, xenograft tumors or PC3 cell lysate; the cell lines are human; also called GRP receptor
Assay: Scatchard plot from absorbance-based (ELISA type) assay on wells of PC3 cell lysate

Kd: 2.8 nM
B1: ProCA1B14 (designed binder)
chain: RDSGTVWGALGHGIELNIPNFQMTDDIDEVRWERGSTLVAEFKRKMKPFLKSGGSGGEQRLGNQWAVGHLMGGSGGAFEIDANGDLDIKNLTRDDSGTYNVTVYSTNGTRILNKALDLRILE
modifications: Gd3+ binding site; PEGylated and conjugated with NIR dye Cy5.5 for the in vivo experiments
notes: Bombesin variant B14 grafted into ProCA1 with GGSGG linkers; also called ProCAB14
